{
  "sequences": {"note": "Chains of the proteins cited; added tags and fusions are not shown. Residues count along the entry.", "UniProt P0ABP8, 2-239 limits assumed": "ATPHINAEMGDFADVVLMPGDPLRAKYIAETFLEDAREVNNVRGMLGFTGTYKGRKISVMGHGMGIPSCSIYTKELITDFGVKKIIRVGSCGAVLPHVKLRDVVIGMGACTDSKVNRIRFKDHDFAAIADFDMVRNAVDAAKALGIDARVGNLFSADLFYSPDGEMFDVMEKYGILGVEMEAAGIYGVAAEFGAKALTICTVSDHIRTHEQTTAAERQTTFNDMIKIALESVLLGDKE", "UniProt P00491, whole entry": "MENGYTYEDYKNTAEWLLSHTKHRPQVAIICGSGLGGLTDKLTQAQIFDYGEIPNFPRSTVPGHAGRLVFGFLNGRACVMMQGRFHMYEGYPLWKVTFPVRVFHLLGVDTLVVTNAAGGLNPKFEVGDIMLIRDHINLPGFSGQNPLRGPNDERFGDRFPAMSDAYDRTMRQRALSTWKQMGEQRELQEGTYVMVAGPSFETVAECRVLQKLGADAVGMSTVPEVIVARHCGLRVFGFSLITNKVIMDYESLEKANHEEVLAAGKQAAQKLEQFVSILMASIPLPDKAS"},
  "source": "patent US6958318B2",
  "about": "“Recombinant bacterial cells for delivery of PNP to tumor cells” (The UAB Research Foundation, priority 1993, dated 2005)",
  "key": {"E. coli PNP": {"molecular_target": "E. coli PNP (Escherichia coli, UniProt P0ABP8)", "test": "Cleavage of purine analog nucleosides by E. coli PNP (HPLC)", "type": "biochemical"}, "human PNP": {"molecular_target": "human PNP (Homo sapiens, UniProt P00491)", "test": "Cleavage of purine analog nucleosides by human PNP (HPLC)", "type": "biochemical", "settings": "in words"}},
  "note": "This is a selection: effects in other tests are not listed, and their absence says nothing.",
  "data": [
    {"substance": "2-Cl-2′-F-2′-deoxyadenosine", "values": [
      {"measurement": "Substrate quality for bacterial (E. coli) PNP", "setting": "E. coli PNP; in words", "result": "poor substrates"},
      {"measurement": "Percent of substrate cleaved by E. coli PNP, 100 μM", "setting": "E. coli PNP; substrate 100 μM, 100 μg/ml enzyme, 25° C., 1 hour, stopped by boiling, parentheses = positive control conversion", "result": "0(86) Percent"},
      {"measurement": "Percent of substrate cleaved by E. coli PNP, 1 mM", "setting": "E. coli PNP; substrate 1 mM, 25° C., 1 hour, stopped by boiling", "result": "0(21) Percent"},
      {"measurement": "Substrate quality for mammalian (human) PNP", "setting": "human PNP", "result": "poor substrates"}
    ]}
  ]
}
